# Molecular target: mGlu1 receptors (Rattus norvegicus, UniProt P23385)
# Protein sequences, listed by entry. Tags and fused reporters are not part of them. Residues count along the entry.
# UniProt P23385, 19-1199: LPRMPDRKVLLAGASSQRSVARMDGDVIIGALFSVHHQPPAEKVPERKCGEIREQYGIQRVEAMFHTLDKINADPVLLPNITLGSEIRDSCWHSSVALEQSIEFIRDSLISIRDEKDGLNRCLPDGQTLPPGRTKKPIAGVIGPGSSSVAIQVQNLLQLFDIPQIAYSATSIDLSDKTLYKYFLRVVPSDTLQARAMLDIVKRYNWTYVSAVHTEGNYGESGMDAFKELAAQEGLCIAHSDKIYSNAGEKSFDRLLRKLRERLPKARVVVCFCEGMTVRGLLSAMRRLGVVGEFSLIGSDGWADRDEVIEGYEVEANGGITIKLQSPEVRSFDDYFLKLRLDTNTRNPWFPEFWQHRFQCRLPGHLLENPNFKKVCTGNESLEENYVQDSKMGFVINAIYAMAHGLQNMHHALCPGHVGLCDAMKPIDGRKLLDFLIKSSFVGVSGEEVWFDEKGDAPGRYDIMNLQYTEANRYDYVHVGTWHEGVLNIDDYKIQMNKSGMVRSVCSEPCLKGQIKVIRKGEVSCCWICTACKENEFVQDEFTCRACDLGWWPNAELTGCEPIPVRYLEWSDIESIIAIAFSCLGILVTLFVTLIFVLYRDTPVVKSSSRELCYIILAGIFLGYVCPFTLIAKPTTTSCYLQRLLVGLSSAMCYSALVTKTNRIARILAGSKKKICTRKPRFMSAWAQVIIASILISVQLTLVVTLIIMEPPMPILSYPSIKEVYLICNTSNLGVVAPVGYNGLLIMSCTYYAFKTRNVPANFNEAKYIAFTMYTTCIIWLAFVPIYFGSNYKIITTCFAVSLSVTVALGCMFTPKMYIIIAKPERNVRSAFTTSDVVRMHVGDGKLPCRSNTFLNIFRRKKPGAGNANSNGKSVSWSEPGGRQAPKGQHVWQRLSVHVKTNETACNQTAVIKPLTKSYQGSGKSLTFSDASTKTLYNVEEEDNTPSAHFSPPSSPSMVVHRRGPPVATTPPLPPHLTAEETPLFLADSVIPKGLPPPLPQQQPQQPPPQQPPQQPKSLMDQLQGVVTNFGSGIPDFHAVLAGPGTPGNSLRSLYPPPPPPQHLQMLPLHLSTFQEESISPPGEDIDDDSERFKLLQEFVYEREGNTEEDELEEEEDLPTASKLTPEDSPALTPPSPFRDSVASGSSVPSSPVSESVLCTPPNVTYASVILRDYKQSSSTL
# Test: PI hydrolysis
# Format: cell-based
smiles,measurement,value
"N[C@@H](Cn1oc(=O)[nH]c1=O)C(=O)O [Quisqualate, quisqualate]",EC50,440 nM

# From article PMC4387075 (Neuropharmacology, 2015)
